{
  "source": "patent US20140363406A1",
  "about": "“ESTROGEN METABOLITE LEVELS AND CYP1B1 POLYMORPHISMS IN LUNG CANCER DIAGNOSIS, PROGNOSIS, AND RISK ASSESSMENT” (Institute for Cancer Research d/b/a The Research Institute …, priority 2012, published 2014)",
  "biological_target": "T1, CYP1B1 (Mus musculus, UniProt Q64429)",
  "T1 sequence (Q64429 1-543)": "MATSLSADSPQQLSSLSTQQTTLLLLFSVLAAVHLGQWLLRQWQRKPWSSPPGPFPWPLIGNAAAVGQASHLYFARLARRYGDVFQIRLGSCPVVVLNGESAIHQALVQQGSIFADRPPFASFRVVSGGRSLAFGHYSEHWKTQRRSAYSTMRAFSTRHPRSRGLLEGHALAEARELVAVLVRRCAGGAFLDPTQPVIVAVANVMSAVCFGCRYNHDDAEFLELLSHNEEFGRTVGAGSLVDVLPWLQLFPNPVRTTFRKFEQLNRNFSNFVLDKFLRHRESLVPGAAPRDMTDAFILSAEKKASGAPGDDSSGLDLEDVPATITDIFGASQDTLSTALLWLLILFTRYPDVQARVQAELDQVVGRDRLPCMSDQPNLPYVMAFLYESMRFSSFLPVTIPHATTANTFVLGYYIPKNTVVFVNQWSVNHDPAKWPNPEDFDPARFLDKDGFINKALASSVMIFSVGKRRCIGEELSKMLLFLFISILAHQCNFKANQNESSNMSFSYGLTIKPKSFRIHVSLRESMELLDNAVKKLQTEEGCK",
  "test": "Impact of Cyp1b1 deletion on lung estrogen/EM levels (Cyp1b1-KO vs Cyp1b1-WT 129SvJ mice), LC-MS2",
  "description": "Animals. […] Smoke exposures were performed on female C57/B6 mice (1.5-2 years old) carrying a human APOE*4 transgene that were part of an atherosclerosis study at Duke University and fed a high-fat diet TD.88051. Animals had free access to food and water. All animal experimentation was approved by the Institutional Animal Care and Use Committees at Fox Chase Cancer Center and Duke University.\nGenotyping. PCR-based genotyping of Cyp1b1 wild-type (Cyp1b1-WT) and knockout (Cyp1b1-K0) mice was performed using Choice Taq Blue DNA Polymerase Master mix (Denville Scientific, South Plainfield, N.J.) according to the following protocol: Wild-type primers—[…]\nLung tissue collection. Following euthanasia, the lungs were perfused by intracardiac injection with 30 ml phosphate buffered saline to flush out the blood. Perfused tissues were snap-frozen in liquid nitrogen and stored at −80° C. […]\nThe extract was chilled at −80° C. for 10 min, returned to room temperature and centrifuged at 3000 × g for 20 min. […] All samples were centrifuged at 3000 ×g for 20 min and analyzed using LC-M5^2. The efficiency of extracting estrogen and its metabolites from the tissue cannot be measured accurately because a known amount of each metabolite cannot be placed in the tissue prior to extraction. […]",
  "data": [
    {"smiles": "COc1cc2c(cc1O)CC[C@@H]1[C@@H]2CC[C@]2(C)[C@@H](O)CC[C@@H]12", "note": "[2-OMeE2, 2-methoxyestradiol]", "values": [
      {"measurement": "increase in lung level in Cyp1b1-KO compared with WT controls", "setting": "females", "value": 5, "unit": "fold"},
      {"measurement": "increase in lung level in Cyp1b1-KO compared with WT controls", "setting": "males", "value": 3.5, "unit": "fold"}
    ]}
  ]
}
